Data from patent US20250064844A1 (Emory University, priority 2020, published 2025).

Conditions: both, cynomolgus monkey, in vivo, po

Row | Structure (SMILES) | improvement of the bioavailability of EIDD-1931 by the prodrug
1 | CC(C)[C@H](N)C(=O)OC[C@H]1O[C@@H](n2ccc(NO)nc2=O)[C@H](O)[C@@H]1O [EIDD-2898] | 4-8 fold
2 | CC(C)C(=O)OC[C@H]1O[C@@H](n2ccc(NO)nc2=O)[C@H](O)[C@@H]1O [EIDD-2801] | 4-8 fold
3 | CC(C)C(=O)OC[C@H]1O[C@@H](n2ccc(NO)nc2=O)[C@H](OC(=O)C(C)C)[C@@H]1OC(=O)C(C)C [EIDD-2800] | 4-8 fold
